# Apparent affinities of Ab-91 variants for a coronavirus HR2 peptide

Antigen: PDVDLGDISGINAS, a 14-residue peptide of the SARS-CoV-2 spike HR2 region.

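The starting antibody came from a phage panning campaign against this peptide. Variants in AAYL51 differ from the parent at up to three CDR positions; double and triple changes were sampled at random. Affinity was read by AlphaSeq, a pooled yeast mating assay with surface-displayed partners. The frequency of each diploid, read from paired DNA barcodes, reflects how well the two displayed proteins bind. Read counts were normalised to the haploid input and turned into Kd by a linear fit to BCL2-family pairs of known affinity, for each replicate. There are three technical replicates.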

Each scFv is VL, three GGGGS repeats, VH, as in the parent Ab-91, and differs from it in the CDRs of the heavy chain only.
VL: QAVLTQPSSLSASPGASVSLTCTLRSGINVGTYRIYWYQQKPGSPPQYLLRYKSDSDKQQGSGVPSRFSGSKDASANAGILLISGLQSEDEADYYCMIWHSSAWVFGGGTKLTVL
VH: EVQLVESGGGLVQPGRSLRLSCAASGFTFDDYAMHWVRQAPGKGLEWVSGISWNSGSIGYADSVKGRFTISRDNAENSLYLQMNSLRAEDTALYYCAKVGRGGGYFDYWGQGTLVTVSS

Positions count from residue 1 of the parent VH; F29Y puts Y in place of F.
All variants listed here change F29 of the VH, counted from its first residue.
Kd is apparent (estimated from mating counts) and averaged on the log scale over replicates with a signal. Smaller is tighter.
"nd" means that the variant was in the library but no mating with the target was seen in any replicate; the authors take this as a sign of poor binding, and no number exists.
Three control strains display no target. For library AAYL51, 21% of the pairings with them gave a signal, with a median of 34 µM and one signal in twenty below 1.8 µM, so weak values seen in few replicates may be background.

- F29Y/S55C/G103D: 340 µM (1 of 3 replicates)
- F29V/N54G/S63T: nd (0 of 3 replicates)
- F29D: 130 µM (1 of 3 replicates)
- F29M/D30M/W53T: nd (0 of 3 replicates)
- F29K/Y32F/Y105C: 220 µM (1 of 3 replicates)
- F29H/H35V/G56R: 140 µM (1 of 3 replicates)
- F29T/M34Q/D107W: nd (0 of 3 replicates)
- F29L/H35F/N54W: 84 µM (2 of 3 replicates)
- F29A/G103F/Y105E: nd (0 of 3 replicates)
- F29N/A33H: 48 µM (3 of 3 replicates)
- F29G/S63D/V99S: 2.3 µM (2 of 3 replicates)
- F29W/W53T/D62L: 28 µM (2 of 3 replicates)
- G26L/F29I/Y32W: 38 µM (2 of 3 replicates)
- T28G/F29M/W53K: nd (0 of 3 replicates)
- F29V/G103I: 61 µM (2 of 3 replicates)
- F29I/D31V: 7.8 µM (1 of 3 replicates)
- F29I/Y32E/S52T: 73 µM (1 of 3 replicates)
- F29L/S63V/K65G: 2.8 µM (2 of 3 replicates)
- F29S/G56M/I58P: nd (0 of 3 replicates)
- F29D/G50N/W53R: 58 µM (3 of 3 replicates)
- F29L/Y60L/R101A: 1.4 µM (1 of 3 replicates)
- F29P/I58W/Y105H: 11 µM (3 of 3 replicates)
- F29G/H35K/I51N: 15 µM (3 of 3 replicates)
- F29W/D30V/G103V: 70 µM (2 of 3 replicates)
- F29D/K65T/Y108K: 290 µM (1 of 3 replicates)
- T28M/F29P/S55L: nd (0 of 3 replicates)
- F27I/F29K/S55V: 3.3 µM (1 of 3 replicates)
- F29E/D30K/G59D: 96 µM (1 of 3 replicates)
- F29R/N54D/R101T: nd (0 of 3 replicates)
- F29W/A33P/S52W: nd (0 of 3 replicates)
- F29K/W53G/D107Y: nd (0 of 3 replicates)
- F29E/D62F/G100E: 1.3 µM (1 of 3 replicates)
- F29D/G50S: 22 µM (1 of 3 replicates)
- F29P/Y32Q/Y105Q: 150 nM (1 of 3 replicates)
- F29I/S55R/K65S: 420 µM (1 of 3 replicates)

4 of these entries, quoted again:

- F29S/G56M/I58P: nd (0 of 3 replicates)
- F29K/W53G/D107Y: nd (0 of 3 replicates)
- F29D: 130 µM (1 of 3 replicates)
- F29L/H35F/N54W: 84 µM (2 of 3 replicates)

Values reported by Engelhart et al. 2022, doi:10.1038/s41597-022-01779-4 (FLAb copy).